For one molecule, IC50 results are on record in US20240116926A1, “HETEROAROMATIC COMPOUNDS” (AstraZeneca AB, priority 2022, published 2024).

The chains behind the UniProt entries cited, without tags or fusion partners. Residues count along the entry.
UniProt Q15561, 217-434 limits assumed: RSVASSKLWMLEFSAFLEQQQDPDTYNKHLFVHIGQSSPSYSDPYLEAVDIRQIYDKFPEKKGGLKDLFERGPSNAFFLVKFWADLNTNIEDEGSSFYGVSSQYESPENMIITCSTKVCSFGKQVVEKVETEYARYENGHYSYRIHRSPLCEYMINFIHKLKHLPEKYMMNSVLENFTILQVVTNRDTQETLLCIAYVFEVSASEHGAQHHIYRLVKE

Broadly, the IC50 is the point on the concentration scale where inhibition reaches its midpoint.

Molecules are shown by their SMILES. Bounds are passed on as bounds.

One assay has as its target TEAD4(217-434) (Homo sapiens (Human), UniProt Q15561). Briefly: TEAD4 FRET. Type of assay: binding. To be noted: read-out: TEAD4 FRET IC50; depalmitoylated, biotinylated TEAD4(217-434), FAM labelled Probe A, 120 min at 25° C.
In another assay the test system is MCF7-Tead cell line. Briefly: TEAD reporter assay. Conditions: read-out: TEAD reporter IC50; MCF7-Tead cells, luciferase activity after 24 hours. How it is done: (§1) MCF7-Tead cell line was obtained from BPS BIOSCIENCE (catalog number 60618) and was maintained in DMEM containing 10% fetal calf serum, 2 mM glutamine, and 400 μg/ml G418. Cells were grown in a humidified incubator at 37° C. with 5% CO2. Cells were distributed to flat bottom white polystyrene TC treated 384 well plates at a density of 3,500 cells/well in 30 uL. Cells were incubated for 24 hours at 37° C. with 5% CO2. Cells were acoustically dosed using an Echo 555, with compounds serially diluted in 100% DMSO. Plates were incubated for an additional 24 hours. Cells were examined for luciferase activity through the addition of 30 μL Bright-Glo luciferase (Promega catalog number E2620). Plates were incubated for 10 minutes at room temperature and luminescence was read using Tecan plate reader. The data obtained with each compound was exported to GENEDATA software to perform curve fitting analysis. IC50 value was calculated based on the concentration of compound that is required to give a 50% effect compared to DMSO control.
In general terms: In a reporter assay the amount or activity of a reporter protein is the signal.

The test system of assay [1] is MCF7-Luciferase cell line. Briefly: Control reporter (MCF7-Luciferase). To be noted: read-out: control reporter IC50; MCF7-Luciferase cells, luciferase activity after 24 hours. How it is done:
(iii) Control Reporter (MCF7-Luciferase)
as §1, with “MCF7-Luciferase” for “MCF7-Tead”, “GENTARGET” for “BPS BIOSCIENCE”, “SC050-L)” for “60618)”, “glutamine.” for “glutamine, and 400 μg/ml G418.”, “μL.” for “uL.”

With `C=CC(=O)N1CC[C@H](Nc2ncc(-c3ccc(C(F)(F)F)cn3)c3nccnc23)C1`, the IC50 is 0.061 µM at TEAD4(217-434), 0.02 µM with MCF7-Tead cell line and over 31.7 µM in assay [1].
